# scFv variants of Ab-14 (light chain) against a SARS-CoV-2 spike peptide

The target is the same throughout: PDVDLGDISGINAS, from the HR2 region of SARS-CoV-2 spike.

The variants keep the heavy chain, the linker and the frameworks of Ab-14 (scFv order VH, a 15-residue (Gly4Ser)3 linker, VL).
VH: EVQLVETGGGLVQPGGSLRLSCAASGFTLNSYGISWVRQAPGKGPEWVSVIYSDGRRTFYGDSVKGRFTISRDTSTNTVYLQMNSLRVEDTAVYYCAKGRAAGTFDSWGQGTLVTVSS
VL: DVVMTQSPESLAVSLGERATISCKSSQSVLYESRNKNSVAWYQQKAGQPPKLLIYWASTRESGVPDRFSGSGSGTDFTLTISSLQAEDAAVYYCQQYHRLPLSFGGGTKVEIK

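The starting antibody came from a phage panning campaign against this peptide. AAYL50 was designed without a model: most single CDR substitutions and a random sample of double and triple ones. AlphaSeq pools MATa yeast showing the antibodies with MATalpha yeast showing the peptide. Mating (16 h, 30 °C) was followed by selection of diploids and sequencing of their barcodes. Read counts were normalised to the haploid input and turned into Kd by a linear fit to BCL2-family pairs of known affinity, for each replicate. The assay was run in three technical replicates.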

Variants are written as CDR1, CDR2 and CDR3 of the light chain (limits as in the source). Parent: KSSQSVLYESRNKNSVA, WASTRES, QQYHRLPLS. Every variant below is changed at Q96 of the VL (sequential numbering). Kd is apparent (estimated from mating counts) and averaged on the log scale over replicates with a signal. Smaller is tighter. "nd" means that the variant was in the library but no mating with the target was seen in any replicate; the authors take this as a sign of poor binding, and no number exists.

Variant KSSQSVLYESRNKNSVA | WASTHES | QVYHRLSLS gave 320 µM (1 of 3 replicates). With MSSQSVLYESENKNSVA | WASTRES | QFYHRLPLS the result was 3.4 nM (3 of 3 replicates). Variant KSSQSVLYESRNTNSVA | WASTRES | QCCHRLPLS gave 910 nM (3 of 3 replicates). Variant KSSQSVLYESRNKNSVT | WASTRES | LYYHRLPLS gave 21 µM (2 of 3 replicates). Variant KSSQSVLYNSRNKNAVA | WASTRES | QEYHRLPLS showed 32 nM (3 of 3 replicates). With KSSQSVLYESRNKNSVA | WASTRES | QIYHRLPLS the result was 44 nM (3 of 3 replicates). With KSMQSVLWESRNKNSVA | WASTRES | QVYHRLPLS the result was 7.1 µM (3 of 3 replicates). For KYSQSVLYESRNKNSVA | WASTRES | QKYHRLPDS, the assay gave nd (0 of 3 replicates).

Variant KSSQSVLYESRWKNSVA | WASTRES | QTYHRLPLA showed 240 nM (3 of 3 replicates).

Three control strains display no target. For library AAYL50, 18% of the pairings with them gave a signal, with a median of 15 µM and one signal in twenty below 970 nM, so weak values seen in few replicates may be background. In this assay the parent's reference entry averaged 4.4 nM; its copy inside this library read 48 nM.

Values reported by Engelhart et al. 2022, doi:10.1038/s41597-022-01779-4 (FLAb copy).